{"source": "patent US20110034487A1", "about": "“CXCR3 ANTAGONISTS” (AMGEN INC., priority 2009, published 2011)", "key": {"CXCR3 [1]": {"molecular_target": "T1, CXCR3 (Homo sapiens, UniProt P49682)", "T1 construct": "endogenous in cells", "T1 sequence (P49682 1-368)": "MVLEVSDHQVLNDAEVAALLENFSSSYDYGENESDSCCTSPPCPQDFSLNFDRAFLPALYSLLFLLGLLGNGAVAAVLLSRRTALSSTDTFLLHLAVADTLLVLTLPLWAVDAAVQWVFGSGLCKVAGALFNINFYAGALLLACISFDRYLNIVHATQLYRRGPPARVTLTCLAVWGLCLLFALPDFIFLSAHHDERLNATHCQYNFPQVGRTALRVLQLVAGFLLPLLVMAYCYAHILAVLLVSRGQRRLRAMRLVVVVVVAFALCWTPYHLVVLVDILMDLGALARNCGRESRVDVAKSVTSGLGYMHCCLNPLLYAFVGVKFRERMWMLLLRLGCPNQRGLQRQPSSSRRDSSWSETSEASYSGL", "test": "[125I]-IP-10 binding assay (CXCR3 binding)", "method": "Unless otherwise noted, all reagents used are available from commercial sources (e.g., Sigma). Test compounds are diluted in DMSO to a concentration that is 40-times the intended final assay concentration; 5 μL are transferred to each well of a 96-well flat-bottomed polypropylene plate (e.g., from Greiner, Inc.). The cells were resuspended in assay buffer (25 mM Hepes, 80 mM NaCl, 1 mM CaCl2, 5 mM MgCl2, 0.2% bovine serum albumin, pH 7.1, stored at 4° C.) at 5 million cells per mL; 100 μL of this cell suspension is then transferred to each well of a 96-well plate containing the diluted test compounds. ^125I-labelled chemokine (purchased from commercial sources, e.g., Amersham, PE Life Sciences) is diluted in assay buffer to a concentration of approximately 60 pM; 100 μL of this chemokine solution is transferred to each well of a 96-well plate containing compounds and cell suspension. The plates are sealed with commercially available foil plate seals (e.g., from E&K Scientific), and stored at 4° C. for 2 to 4 h, shaking gently. […] The plates are counted on a scintillation counter, such as a Packard TopCount. […] Data were analyzed using commercially available software (e.g., Excel from Microsoft, Prism from GraphPad Software Inc.)."}, "CXCR3 [2]": {"molecular_target": "T1, CXCR3", "test": "HWB receptor occupancy (500 ng/ml ITAC)", "format": "cell-based"}}}
{"smiles": "CCOc1ccc(-n2c([C@@H](C)N(Cc3cccnc3)C(=O)Cc3ccc(OC(F)(F)F)cc3)nc3ncccc3c2=O)cc1", "note": "[AMG 487, reference compound]", "values": [{"measurement": "IC50", "setting": "CXCR3 [1]; 50% human plasma, primary, activated human lymphocytes, read-out: [125I]-IP-10 Binding IC50 (nM) 50% Plasma", "result": "49 ± 22", "unit": "nM"}, {"measurement": "IC50", "setting": "CXCR3 [1]; buffer, read-out: [125I]-IP-10 Binding IC50 (nM) Buffer", "result": "5 ± 2", "unit": "nM"}, {"measurement": "IC50", "setting": "CXCR3 [2]", "result": "72 ± 45", "unit": "nM"}]}
